Assay [1] concerns the target Phosphatidylinositol 4,5-bisphosphate 3-kinase catalytic subunit beta isoform (Homo sapiens, UniProt P42338). In words: Inhibition of PI3Kbeta (unknown origin) incubated for 60 mins by kinase-glo luminescence assay.
The target in assay [2] is Phosphatidylinositol 4,5-bisphosphate 3-kinase catalytic subunit gamma isoform (Homo sapiens, UniProt P48736). Briefly: Inhibition of PI3Kgamma (unknown origin) incubated for 60 mins by kinase-glo luminescence assay. Background: Kinase-Glo measures the ATP left after a reaction by luminescence.

Sequences of proteins named here, by UniProt entry; tags and fusion partners are left off. A change or cut given only in a name is not applied to a line headed by its entry.
UniProt P42338: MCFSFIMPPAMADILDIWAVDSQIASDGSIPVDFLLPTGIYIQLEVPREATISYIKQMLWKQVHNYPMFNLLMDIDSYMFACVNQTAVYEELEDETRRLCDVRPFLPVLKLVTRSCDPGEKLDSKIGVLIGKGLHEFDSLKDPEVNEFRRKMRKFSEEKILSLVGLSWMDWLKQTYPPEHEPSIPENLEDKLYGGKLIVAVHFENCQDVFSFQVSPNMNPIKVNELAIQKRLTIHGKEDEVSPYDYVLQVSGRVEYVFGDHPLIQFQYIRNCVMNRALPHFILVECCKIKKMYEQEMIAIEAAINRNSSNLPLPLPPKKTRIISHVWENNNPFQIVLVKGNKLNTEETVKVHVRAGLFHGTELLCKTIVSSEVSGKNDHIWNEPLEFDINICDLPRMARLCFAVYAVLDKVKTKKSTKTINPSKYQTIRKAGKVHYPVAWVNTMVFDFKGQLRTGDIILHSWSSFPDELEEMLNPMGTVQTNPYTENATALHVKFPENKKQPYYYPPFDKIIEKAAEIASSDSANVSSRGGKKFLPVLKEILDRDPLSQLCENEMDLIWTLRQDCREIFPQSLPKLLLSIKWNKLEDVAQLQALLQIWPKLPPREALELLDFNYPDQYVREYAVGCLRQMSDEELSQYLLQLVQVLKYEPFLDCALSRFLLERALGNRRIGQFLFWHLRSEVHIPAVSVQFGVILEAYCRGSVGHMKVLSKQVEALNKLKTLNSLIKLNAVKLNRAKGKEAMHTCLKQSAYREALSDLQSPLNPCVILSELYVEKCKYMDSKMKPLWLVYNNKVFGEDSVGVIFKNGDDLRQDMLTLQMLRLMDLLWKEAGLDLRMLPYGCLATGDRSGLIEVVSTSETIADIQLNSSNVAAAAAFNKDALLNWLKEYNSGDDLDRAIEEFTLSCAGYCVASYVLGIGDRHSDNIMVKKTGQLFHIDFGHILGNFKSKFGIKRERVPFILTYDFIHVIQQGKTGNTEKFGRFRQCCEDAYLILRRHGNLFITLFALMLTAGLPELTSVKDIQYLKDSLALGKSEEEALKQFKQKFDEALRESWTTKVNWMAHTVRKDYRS
UniProt P48736: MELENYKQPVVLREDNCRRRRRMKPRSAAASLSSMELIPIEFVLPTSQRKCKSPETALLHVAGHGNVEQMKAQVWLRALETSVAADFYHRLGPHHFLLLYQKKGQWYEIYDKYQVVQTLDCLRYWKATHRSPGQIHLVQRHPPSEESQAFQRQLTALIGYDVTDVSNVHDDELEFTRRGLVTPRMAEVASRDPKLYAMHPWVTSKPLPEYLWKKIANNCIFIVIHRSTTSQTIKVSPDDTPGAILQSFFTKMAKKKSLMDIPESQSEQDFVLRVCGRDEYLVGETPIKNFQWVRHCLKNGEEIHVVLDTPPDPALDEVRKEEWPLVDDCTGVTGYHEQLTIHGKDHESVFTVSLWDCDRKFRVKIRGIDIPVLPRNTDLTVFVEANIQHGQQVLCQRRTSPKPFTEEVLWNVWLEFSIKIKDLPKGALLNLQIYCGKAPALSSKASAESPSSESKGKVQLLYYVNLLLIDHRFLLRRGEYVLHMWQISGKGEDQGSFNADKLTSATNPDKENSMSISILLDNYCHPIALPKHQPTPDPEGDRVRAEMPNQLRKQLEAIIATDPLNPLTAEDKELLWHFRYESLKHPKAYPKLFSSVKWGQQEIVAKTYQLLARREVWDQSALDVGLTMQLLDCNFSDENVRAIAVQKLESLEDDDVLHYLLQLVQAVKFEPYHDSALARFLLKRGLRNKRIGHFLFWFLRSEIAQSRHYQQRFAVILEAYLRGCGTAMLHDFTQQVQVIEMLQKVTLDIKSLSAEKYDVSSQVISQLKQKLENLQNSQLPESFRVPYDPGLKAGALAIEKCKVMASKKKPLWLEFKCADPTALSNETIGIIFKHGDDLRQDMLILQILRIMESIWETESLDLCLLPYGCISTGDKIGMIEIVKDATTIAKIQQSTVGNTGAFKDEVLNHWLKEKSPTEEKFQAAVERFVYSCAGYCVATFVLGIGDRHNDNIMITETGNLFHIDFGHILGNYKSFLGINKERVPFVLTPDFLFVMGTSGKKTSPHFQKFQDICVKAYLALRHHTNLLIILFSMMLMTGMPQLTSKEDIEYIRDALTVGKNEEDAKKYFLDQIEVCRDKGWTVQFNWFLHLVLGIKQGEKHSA

Structures are written as SMILES.

With `O=c1cc(N2CCOCC2)oc2c(-c3ccccc3)cccc12` [LY-294002], the IC50 came out at 3000 nM in assay [1] and 1500 nM in assay [2].

A word on the IC50: it is the concentration that inhibits the measured activity by half. The low end stands for inhibition by little substance, the high end for a need for much substance.

The values are drawn from ChEMBL document CHEMBL3763148, “Synthesis, structure elucidation, DNA-PK and PI3K and anti-cancer activity of 8- and 6-aryl-substituted-1-3-benzoxazines” (Eur J Med Chem, 2016).
